Data reported in ChEMBL document CHEMBL1158559, “Chromone-2- and -3-carboxylic acids inhibit differently monoamine oxidases A and B” (Bioorg Med Chem Lett, 2010).

Protein sequences, listed by entry. Tags and fused reporters are not part of them.
UniProt P27338, whole entry: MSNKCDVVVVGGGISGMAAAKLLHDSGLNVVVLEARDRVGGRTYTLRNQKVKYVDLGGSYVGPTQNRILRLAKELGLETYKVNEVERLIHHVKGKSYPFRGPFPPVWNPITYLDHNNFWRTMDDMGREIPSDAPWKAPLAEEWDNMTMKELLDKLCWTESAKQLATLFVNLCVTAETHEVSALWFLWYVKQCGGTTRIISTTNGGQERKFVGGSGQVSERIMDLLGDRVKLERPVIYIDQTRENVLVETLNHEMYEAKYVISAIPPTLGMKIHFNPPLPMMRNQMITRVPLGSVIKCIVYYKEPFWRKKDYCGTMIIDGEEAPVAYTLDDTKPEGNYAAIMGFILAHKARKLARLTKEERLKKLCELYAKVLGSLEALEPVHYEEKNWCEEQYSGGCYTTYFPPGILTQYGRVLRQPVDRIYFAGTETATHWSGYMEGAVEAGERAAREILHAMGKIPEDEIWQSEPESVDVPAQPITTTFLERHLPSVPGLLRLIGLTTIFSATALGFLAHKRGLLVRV

Molecular target: Amine oxidase [flavin-containing] B (Homo sapiens, UniProt P27338)

- IC50: 48 nM
SMILES: O=C(O)c1coc2ccccc2c1=O
